This is an account of results in the OPERA property sets (Mansouri et al. 2018).

Structures are written as SMILES.

The conditions of this series: experimental values, compiled.

Compound `O=[N+]([O-])OCCCCCCCCO[N+](=O)[O-]` had a logP of 4.4. The same measure for `CCCCCCC(CO[N+](=O)[O-])O[N+](=O)[O-]` (configuration not stated): 4.63.

As a reminder, the logP is the decadic logarithm of the partition coefficient of the neutral form, usually between octanol and water.
